The values below are quoted from earlier work in patent US12691107B2, “Methods for the treatment and prevention of lung infections caused by gram-positive bacteria, fungus, or virus by administration of tafenoquine” (priority 2020, dated 2026).

The subject of this data set is Staphylococcus aureus. Particulars: cited from earlier work.

As to `COc1cc(NC(C)CCCN)c2ncccc2c1` (stereo not shown) [Primaquine], the MIC is 50 microgram/ml.
